The campaign covered roughly 290,000 compounds. About 1,000 (0.34%) were called active. The source calls these results inconclusive, neither active nor inactive. No stated cut-off is given here; in the data, active means inhibition above about 50% (passing the limit was not always enough); inconclusive means no clear call, values can overlap the other calls.
The compounds below were run against SUMO-conjugating enzyme UBC9 (Homo sapiens) (UniProt P63279) (assay: blockers of SAE1/SAE2–UBC9 SUMO transfer – biochemical, HTRF, uHTS, primary screen (AID 2006)). Conditions: HTRF SUMOylation assay, SAE1/SAE2 + UBC9, in vitro; at 35 µM; stronger effect = higher value.

By UniProt entry, the sequences of proteins in these tests, tags left out.
UniProt P63279, whole entry, looked up: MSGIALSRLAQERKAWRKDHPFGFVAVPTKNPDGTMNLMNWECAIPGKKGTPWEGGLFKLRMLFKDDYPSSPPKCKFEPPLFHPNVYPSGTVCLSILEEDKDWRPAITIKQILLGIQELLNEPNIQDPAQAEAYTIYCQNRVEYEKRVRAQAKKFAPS

Structure (SMILES)	inhibition
O=[N+]([O-])c1cc([N+](=O)[O-])c(-c2ccn[nH]2)s1	inconclusive: 80.3%

Reference: PubChem BioAssay AID2006 (Sanford-Burnham Center for Chemical Genomics, 2009)
